Assay results as given in patent US6410695B1, “Individual medicament dosing conjugate” (Deutsches Krebsforschungszentrum Stiftung Des Öffentlichen …, priority 1995, dated 2002).

Test system: Walker 256 tumor cells
Assay: Growth inhibition of tumor cells (cell number per ml)
Assay type: cell-based
Conditions: Walker 256 tumor cells incubated with conjugate, HSA as control; cell number per ml after 24 hours and 48 hours
Protocol: Each of the conjugates celliton blue-DTPA-HSA and novantron-DTPA-HSA as well as HSA as control were incubated with Walker 256 tumor cells under conventional conditions. The cell number per ml was determined as usual after 24 hours and 48 hours, respectively.
Example 4 was carried out like Example 3, acid black-DTPA being administered as a conjugate.

Row | Substance | growth inhibition of tumor cells
1 | celliton blue-DTPA-HSA: Celliton blue (1,4,5,8-tetraaminoantraquinone) reacted with DTPA anhydride, then linked to HSA | growth inhibition
2 | novantron-DTPA-HSA: Mitoxantrone (novantron) reacted with DTPA anhydride, then linked to human serum albumin (HSA) | growth inhibition
